Measurements published in patent publication US20090042783A1, “APO E ANALOGS AND METHODS FOR THEIR USE” (priority 2004, published 2009).

Protein sequences, listed by entry. Tags and fused reporters are not part of them. Lines headed by an entry give the natural chain unless they say otherwise; changes in a name come on top.
UniProt P02649: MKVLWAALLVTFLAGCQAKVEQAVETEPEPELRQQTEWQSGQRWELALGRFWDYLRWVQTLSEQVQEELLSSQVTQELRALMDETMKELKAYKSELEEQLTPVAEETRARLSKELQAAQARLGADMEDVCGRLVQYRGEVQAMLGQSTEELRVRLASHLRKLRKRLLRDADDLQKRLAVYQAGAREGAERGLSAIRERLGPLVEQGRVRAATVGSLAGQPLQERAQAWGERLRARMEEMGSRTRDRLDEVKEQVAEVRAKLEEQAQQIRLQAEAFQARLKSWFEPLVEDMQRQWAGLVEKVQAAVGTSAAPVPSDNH

Test system: BV2 microglial cells
Protocol: For suppression of inflammation profiling, each peptide analog was tested at a final concentration of 0.1, […], 1, 3, 5, 10 and 25 μM in an LPS induced BV2 microglial cell release of NO and/or TNFα. […] The modification was a biotin label on the apoE peptide (biotin-[…]-amide) which allows detection with ^125I-streptavidin (ISA, Amersham).
In overview, BV-2 cells are plated in 96 well plates in complete media and then the media is replaced the next day with serum free media or reduced serum (1%) media. […] Each concentration of peptide (standard initial concentrations are 0.1, 0.5, 1, 3, 10 and 25 μM) is added to at least 6 wells of cells (e.g. 6 wells get 0.1 μM peptide, 6 wells get 0.5 μM peptide, etc.) and data are averaged from all 6 wells. […] (2001). Cell viability is also measured with an MTT assay (Laskowitz et al. 2001).

Substance	Suppression of NO and/or TNFα release from LPS treated BV2 cells	Nitric oxide release from LPS-treated BV2 cells (Laskowitz et al. 2001)	TNFα release from LPS stimulated BV2 cells (Laskowitz et al. 2001)
apoE 130-149: truncated apoE peptide, residues 130-149 (TEELRVRLASHLRKLRKRLL; UniProt P02649 148-167, looked up, fragment)	maintained the activity of the apoE 130-150 parent peptide	significantly reduced nitric oxide release	dose dependent inhibition of TNFα release
all-L amino acid apoE 130-150 peptide: apoE 130-150 parent peptide, all L-amino acids (TEELRVRLASHLRKLRKRLLR; UniProt P02649 148-168, looked up, fragment)	suppress both NO and TNFα release		
